Screening data as filed in PubChem BioAssay.
miR-21 reporter: raises the signal of a miR-21 reporter | HeLa miR-21 FLuc reporter, luciferase, 48 h | 340,000 tested, under 10 active | Potency, µM (titrated, usually from 38.3 µM), inactives show at the highest dose reporter change, positive = more light; active = well fitted rising curve with a large enough effect; inconclusive = small, poorly fitted or top-dose-only effect; inactive = no such curve, though single readings can be large or run the other way;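 further: % of control where 0% means no effect; miR-21 action dims this reporter so a rising signal means less miR-21 action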
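HeLa cells stably expressing CMV-driven firefly luciferase with a downstream miR-21 binding sequence, endogenously expressing miR-21, were treated with titrations (up to about 40uM final) for 48 hours at 37 degree Celsius. Luciferase luminescence was read after lysis.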
LMNA splice mod: modulators of lamin A splicing; HeLa LMNA splicing GFP/RFP minigene ratio, 48 h; 0.01% of 200,000 active; AID 1487; Potency, µM (series often up to 46.1 µM), for the others: top-dose ratio change, negative = inhibition, actives largely listed as inhibitors; active = well fitted inhibition curve with a large enough effect in the signal ratio, with a control signal flat, not every such curve was filed as active; inconclusive = small, poorly fitted or top-dose-only effect, or effect the other way, or a change in a side signal; the % refers to the signal ratio; also: potency is read from the fitted curve at half-maximal effect; % is scaled to controls: 0 for no effect and ±100 for the full control effect
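S3 HeLa stable clones carrying a lamin A-EGFP splicing minigene plus DsRed2 were seeded at 600 cells/well in Opti-MEM with 2% FBS, pin-dosed and incubated 48 h at 37°C. Acumen cytometry (488 nm) gave the GFP/RFP total-intensity ratio.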
G9a inh: inhibitors of human histone lysine methyltransferase G9a; Q96KQ7; G9a H3K9 monomethylation, AlphaScreen, 2 h; Potency, µM (highest dose often 102 µM), for inactives: at the highest dose activity, negative = inhibition, actives largely listed as inhibitors; 8.8% of 350,000 active; also: potency is read from the fitted curve at half-maximal effect; % is scaled to controls: 0 for no effect and ±100 for the full control effect; nearly all actives have a fitted effect of over 75% in size
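Signal arises when biotinylated H3K9 peptide, once monomethylated, bridges streptavidin donor and antibody-captured acceptor beads. Enzyme at 20 nM was preincubated 15 min with test compounds; peptide 500 nM and SAM 20 uM then reacted for 2 h.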
ALDH1A1 block: blocks purified human ALDH1A1 activity; P00352; Purified ALDH1A1, NADH fluorescence, propionaldehyde substrate; Potency, µM (top dose mostly 75.3 µM), inactives show top-dose activity, negative = inhibition, most hits filed as inhibitors; 7.3% of 220,000 active; AID 1030; active = well fitted inhibition curve with a large enough effect, not every such curve was filed as active; inconclusive = small, poorly fitted or top-dose-only effect, or another doubt; inactive = no such curve, though single readings can be large or run the other way;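 also: potency is read from the fitted curve at half-maximal effect; plate controls were no enzyme wells and a reference inhibitor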
KDM4E inh: inhibitors of human JMJD2E histone demethylase. JMJD2E catalytic domain, FDH-coupled NADH fluorescence (FDH is formaldehyde dehydrogenase). Potency, µM (doses to about 57.1 µM), without a hit: at the highest dose activity change, negative = inhibition, hits mostly inhibitors. 1.6% of 230,000 active; active = well fitted inhibition curve with a large enough effect, not every such curve was filed as active; inconclusive = small, poorly fitted or top-dose-only effect, or another doubt; inactive = no such curve, though single readings can be large or run the other way;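 also: potency is read from the fitted curve at half-maximal effect; 0% = wells with enzyme and -100% = buffer wells without enzyme; nearly all actives have a fitted effect of over 50% in size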
Sfp PPTase inh: inhibitors of Bacillus subtilis Sfp phosphopantetheinyl transferase. Q9F4F7. Biochemical Sfp PPTase activity, qHTS. Potency, µM, inactives show max response, negative = inhibition, most hits filed as inhibitors. 3.5% of 310,000 active. AID 1490; active = well fitted inhibition curve with a large enough effect; inconclusive = small, poorly fitted or top-dose-only effect, or another doubt; inactive = no such curve, though single readings can be large or run the other way;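 also: the enzyme is Sfp with the accession as filed and its product quenches rhodamine fluorescence; potency is read from the fitted curve at half-maximal effect; 0% = enzyme reaction without inhibitor and -100% = no enzyme wells; top concentration of the series not given in the record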
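With Hepes-Na pH 7.6 buffer containing 10 mM MgCl2, Sfp (15 nM) modified BHQ-2-YbbR (12.5 uM) using rhodamine-CoA (5 uM). Two reads 30 minutes apart at 525/598 nm yielded each well's rate.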
* marks the source's active call; other numbers are inactive results; ? = inconclusive; nt = no result given; [ ] = remark or other dose. A selection: hits, their analogues and other compounds. The true share with any hit is near 13%. Unless noted, calls follow the shape of the dose curve; as a rule, active = well fitted curve in the direction sought with a large enough effect; inconclusive = small, poorly fitted or top-dose-only effect, or another doubt; inactive = no such curve, though single readings can be large; an effect the other way counts as inactive or inconclusive.

SMILES | miR-21 reporter | LMNA splice mod | G9a inh | ALDH1A1 block | KDM4E inh | Sfp PPTase inh
C[C@@H]1/C(=N/O)CC2C[C@@H]1C2(C)C | nt | -16% | nt | 11µM* | 7% | 8%
COC(=O)CNc1nc(Cl)nc(NC2CCCCC2)n1 | -17% | nt | 11%[59 µM] | nt | nt | 29%
CCOc1ccc(C2C(C(N)=O)=C(C)Nc3nc(-c4cccc(Cl)c4)nn32)cc1OC (configuration not stated) | 2% | nt | -28%[59 µM] | nt | nt | nt
CCCCN(CC)CCCNC(=O)c1ccc(CS(=O)(=O)c2ccccc2C)o1 | 0% | nt | 14% | nt | nt | 13%
Cc1cc2n(n1)SC(Nc1cc(Cl)ccc1Cl)N2 (configuration not stated) | -25% | -4% | 7.9µM* | 3.5µM* | -2% | 2%
Cc1cc2n(n1)SC(Nc1ccc(F)cc1)N2 (configuration not stated) | -35% | -3% | 1.4µM* | 28µM* | -7% | -4%
O=C(Nc1cc(Cl)ccc1Cl)Nn1cnnc1 | -1% | nt | -21% | nt | nt | 2%
CCc1ccccc1NC1Nc2cc(C)nn2S1 (configuration not stated) | -5% | ? | 1.6µM* | ? | -2% | 17%
Cc1cc(Nc2ccc(F)cc2)n2nc(C)nc2n1 | -10% | -4% | -46% | -4% | 4% | 5%
CCc1ccccc1NC(=O)N1CCCn2nc(C)cc21 | -1% | nt | 4%[59 µM] | nt | nt | nt
Cc1cc2n(n1)SC(Nc1cccc3ccccc13)N2 (configuration not stated) | -36% | -10% | 0.63µM* | 13µM* | ? | -12%
Cc1cc(C)nc(Nc2cccc3ccccc23)n1 | -10% | nt | nt | nt | nt | -3%
CCOC(=O)CC(C(=O)OCC)C1CCCCC1=O (configuration not stated) | nt | nt | nt | -7% | -10% | 23%
COc1cccc(CN2C(=O)c3ccccc3Sc3ccc(C(=O)NCCc4ccc(Cl)cc4)cc32)c1 | 9% | nt | 4%[59 µM] | nt | nt | nt
COc1ccc(CCC2(C)NC(=O)N(C(C)C(=O)N3c4ccccc4CC3C)C2=O)cc1 (configuration not stated) | nt | nt | -6%[2.33 µM] | nt | nt | nt

Some of the entries above, reformatted.
compound,miR-21 reporter,LMNA splice mod,G9a inh,ALDH1A1 block,KDM4E inh,Sfp PPTase inh
CCCCN(CC)CCCNC(=O)c1ccc(CS(=O)(=O)c2ccccc2C)o1,0%,nt,14%,nt,nt,13%
Cc1cc2n(n1)SC(Nc1cc(Cl)ccc1Cl)N2 (configuration not stated),-25%,-4%,7.9µM*,3.5µM*,-2%,2%

New compounds follow
SMILES | miR-21 reporter | LMNA splice mod | G9a inh | ALDH1A1 block | KDM4E inh | Sfp PPTase inh
Cc1ccc(C2NCCS2)cc1 (configuration not stated) | 0% | nt | 45µM* | 7% | -6% | -13%
CN(C)c1ccc(C2NCCS2)cc1 (configuration not stated) | -7% | -2% | ? | 1µM* | 5% | -2%
O=S(=O)(NCCS(=O)(=O)N1CCN(c2ccccc2)CC1)c1ccc(Br)cc1 | -2% | 0%[46 µM] | -10%[59 µM] | nt | nt | nt
CN1CCc2c(sc(/N=C/c3c[nH]c4ccccc34)c2C(N)=O)C1 | -1% | nt | 45µM* | nt | ? | ?
CN1CCc2c(sc(NC(=O)c3ccc(S(=O)(=O)N4CCCCCC4)cc3)c2C(N)=O)C1 | -10% | nt | 7%[12.7 µM] | nt | nt | -11%
CCN1CCc2c(sc(N)c2C(N)=O)C1 | -3% | -4% | ? | ? | ? | 50µM*
CN1CCc2c(sc(N)c2C(N)=O)C1 | 1% | -6% | ? | ? | ? | 56µM*
CN1CCc2c(sc(/N=C/c3c[nH]c4ccccc34)c2C#N)C1 | -11% | nt | nt | nt | ? | ?
CC(C)(C)OC(=O)COc1ccc(/C=N/NC(=O)CN2CCCCC2)cc1 | -44% | nt | -7% | nt | nt | 12%
Cc1cccc(C)c1OCCCCCNCCO | 1% | -9% | 0%[12.7 µM] | 20µM* | 191% | 1%
CC(C)COC(=O)NCCCOC(=O)Nc1ccccc1 | -26% | ? | ? | 22µM* | 0% | 7%
Cc1ccc(-c2noc(-c3ccc(NCc4cccnc4)c([N+](=O)[O-])c3)n2)cc1 | 5% | nt | 9%[59 µM] | nt | nt | nt
COc1cc(-c2nnc(SCC(=O)NC3CCCC3)n2C)cc(OC)c1O | 1% | nt | 79µM* | nt | nt | 15%
Cn1c(SCC(=O)NC2CCCCC2)nnc1-c1cccc(N)c1 | -3% | 4% | 1.6µM* | 4% | 4% | -9%
O=C(CSc1nc2cc3ccccc3cc2[nH]1)Nc1cccc(C(F)(F)F)c1 | -3% | nt | -41%[59 µM] | nt | nt | nt

Continued (two carried over from the part before).
SMILES | miR-21 reporter | LMNA splice mod | G9a inh | ALDH1A1 block | KDM4E inh | Sfp PPTase inh
Cn1c(SCC(=O)NC2CCCCC2)nnc1-c1cccc(N)c1 | -3% | 4% | 1.6µM* | 4% | 4% | -9%
O=C(CSc1nc2cc3ccccc3cc2[nH]1)Nc1cccc(C(F)(F)F)c1 | -3% | nt | -41%[59 µM] | nt | nt | nt
O=C(Nc1nnc(-c2ccc(Br)cc2)o1)C1=COCCO1 | nt | nt | -3% | nt | nt | nt
CS(=O)(=O)c1ccccc1-c1nnc(NC(=O)C2=COCCO2)o1 | nt | nt | 25µM* | nt | nt | nt
O=C(CCS(=O)(=O)c1ccc(F)cc1)Nc1nnc(-c2ccco2)o1 | nt | nt | 28µM* | nt | nt | nt
CS(=O)(=O)c1cccc(-c2nnc(NC(=O)C3=COCCO3)o2)c1 | nt | nt | 35µM* | nt | nt | nt
CS(=O)(=O)c1cccc(-c2nnc(NC(=O)CCS(=O)(=O)c3ccccc3)o2)c1 | nt | nt | 32µM* | nt | nt | nt
Cc1ccc(S(=O)(=O)CCC(=O)Nc2nnc(-c3ccc(F)cc3)o2)cc1 | nt | nt | -9% | nt | nt | nt
O=C(Cn1ncn2nc(-c3cccs3)cc2c1=O)NCc1ccc(Cl)cc1 | 3% | nt | -7%[59 µM] | nt | nt | nt
Cc1ccc(NC(=O)CCNS(=O)(=O)c2ccc3c(c2)CCCC(=O)N3)cc1 | 12% | 7%[46 µM] | -15%[59 µM] | nt | nt | nt
CCN(CC)CCN(CC(=O)N(C1CCCCC1)C1CCCCC1)C(=O)c1ccco1 | -1% | nt | 45µM* | -8% | ? | -23%
CCN(C(=O)c1ccco1)C1C2CC3CC(C2)CC1C3 (configuration not stated) | 1% | nt | nt | nt | nt | 10%
COc1cccc(CCN2CCC(CNS(=O)(=O)c3cc(-c4cc(C)no4)ccc3OC)CC2)c1 | 22% | nt | 19%[59 µM] | nt | nt | 6%
COc1cccc(CCN2CCC(CNS(=O)(=O)c3cc(-c4cc(C)no4)ccc3C)CC2)c1 | 25% | nt | 71µM* | nt | nt | 1%
COc1ccccc1P(=O)(c1ccccc1)c1ccc([N+](=O)[O-])cc1 (configuration not stated) | -3% | nt | -9% | nt | nt | 7%
CCOC(CCNC(=O)c1cn(CC(C)C)c(=O)c2c1c1ccccc1n2C)OCC | 0% | nt | 8% | nt | nt | -14%
CN1CCN(C(=O)c2cc(Cl)ccc2NC(=O)c2ccc(Cl)cc2Cl)CC1 | -3% | nt | ? | nt | nt | 12%
CC1(C)Cc2c(c(-c3ccco3)[nH]c(=O)c2C#N)CS1 | 0% | -13% | ? | 5.6µM* | ? | -89%
CC1(C)Cc2c(c(-c3ccccc3)[nH]c(=O)c2C#N)CS1 | -8% | 0% | -29%[12.7 µM] | 28µM* | -23% | 10%
CC1CCCN(Cc2c(O)ccc3c(=O)c(-c4ccccc4Cl)c(C(F)(F)F)oc23)C1 (configuration not stated) | 0% | nt | 13%[59 µM] | nt | nt | nt
Cc1c(Br)ccc(NC(=O)CCN2C(=O)C3C4CCC(C4)C3C2=O)c1C (configuration not stated) | -32% | 7% | -25%[59 µM] | 32µM* | -7% | 6%
CC1CCCC(C)N1c1ccc(S(=O)(=O)N2CCOCC2)cc1Cl (configuration not stated) | 0% | nt | -4% | nt | nt | -10%
OCC1(CCc2ccccc2)CCN(Cc2cnc(N3CCCC3)s2)CC1 | -10% | nt | -43% | ? | -1% | 50µM*
